Assay results as given in patent publication US7402687B2, “Dihydrobenzofuran derivatives and uses thereof” (Wyeth, priority 2005, dated 2008).
pEC50, pKi: −log10 of the molar value.

The chains behind the UniProt entries cited, without tags or fusion partners. Residues count along the entry.
UniProt P28335, 33-458: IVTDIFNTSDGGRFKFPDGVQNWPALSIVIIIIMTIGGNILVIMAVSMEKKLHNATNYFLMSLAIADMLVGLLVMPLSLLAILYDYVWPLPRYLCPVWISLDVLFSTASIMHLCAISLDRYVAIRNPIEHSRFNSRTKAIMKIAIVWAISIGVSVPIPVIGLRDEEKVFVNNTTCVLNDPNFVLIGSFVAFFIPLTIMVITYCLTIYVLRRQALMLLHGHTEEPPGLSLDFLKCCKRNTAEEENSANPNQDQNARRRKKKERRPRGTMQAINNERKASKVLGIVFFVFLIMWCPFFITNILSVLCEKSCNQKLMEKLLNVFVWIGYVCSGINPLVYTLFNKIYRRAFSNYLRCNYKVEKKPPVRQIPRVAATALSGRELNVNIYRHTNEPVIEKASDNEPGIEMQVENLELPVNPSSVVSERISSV

Columns and labels:
[1] = molecular target: human 5-HT2C receptor (Homo sapiens, UniProt P28335); conditions: calcium mobilization, Fluo-3-AM, CHO cells expressing human 5-HT2C; % of maximal 5-HT response
[2] = molecular target: T1, human 5-hydroxytryptamine-2C (h5-HT2C) receptor (Homo sapiens, UniProt P28335); test: [125I]DOI competition binding at h5-HT2C receptor in transfected CHO cell membranes; conditions: [125I]DOI displacement, CHO membranes expressing h5-HT2C; 95% confidence interval in adjacent column
T1 construct: expressed in transfected cells; host or cells: CHO (Chinese Hamster Ovary) cells; membrane preparation

Structure (SMILES): Clc1cccc(N2CCNCC2)c1 [mCPP, meta-chlorophenylpiperazine]
- pEC50 [1]: 8.27
- pKi [2]: 8.19
